The data set is described as follows: in vitro. The note with it: dog, MDCK-MDR1.

The structures appear in SMILES notation.

This note sets out measurements from paper PMC3745465 (PLoS ONE, 2013).

`CC(=O)N1CCN(c2ccc(OCC3COC(Cn4ccnc4)(c4ccc(Cl)cc4Cl)O3)cc2)CC1` (stereo not shown) came in with a Papp at 2 h of 1200 nm/s.

A word on the Papp: it is a coefficient for how fast a substance crosses the barrier. A high value points to fast passage.
